Experimental data from ChEMBL document CHEMBL1127030, “3-Tetrahydrofuran and pyran urethanes as high-affinity P2-ligands for HIV-1 protease inhibitors” (J Med Chem, 1993).

Molecular target: Human immunodeficiency virus type 1 protease (Human immunodeficiency virus 1, UniProt Q72874)
Experiment: Inhibition of HIV-1 protease

Row | SMILES | IC50
1 | CC(C)(C)NC(=O)[C@@H]1C[C@@H]2CCCC[C@@H]2CN1C[C@@H](O)[C@H](Cc1ccccc1)NC(=O)O[C@H]1CCOC1 | 160 nM
2 | CC(C)(C)NC(=O)[C@@H]1C[C@@H]2CCCC[C@@H]2CN1C[C@@H](O)[C@H](Cc1ccccc1)NC(=O)O[C@@H]1CCOC1 | 694 nM
